Our source for the inhibition values is PubChem BioAssay AID463079 (The Scripps Research Institute Molecular Screening Center, 2010).

The entries are a selection whose mix differs from that of the whole data set. Calls of active or inactive are those of the source.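 How the source made its calls: active means inhibition above that plate's mean sample inhibition plus 3 SD (cut at about 26% in these data); inactive means the rest.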

This assay can be described thus: ATP-evoked calcium signal inhibitors, parental CHO, primary screen, counter-screen for OX1R antagonist project, cell-based, fluorescence, Fluo-8 calcium dye (AID 463079).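 Further: 0% = ATP-challenged DMSO wells and 100% = DMSO wells without ATP.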 To be noted: parental CHO-K1, ATP-induced calcium, Fluo-8 fluorescence; at 5.6 µM; hits give high values. An outline of the steps:
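Material: parental CHO cells / Compound: single nominal dose of 5.6 µM per compound / Signal: Fluo-8 fluorescence / Replicates: singlicate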
(The purpose of a counterscreen is to sort out artefacts and off-target activity.)
In general, inhibition refers to the drop in the measured response relative to a control, in per cent. Regarding `CCCOc1ccc(NP(C)(=O)Oc2ccc(Cl)cc2)cc1` (stereo unspecified), the inhibition is inactive: -18%.
